Screening data deposited in PubChem BioAssay by National Center for Advancing Translational Sciences (NCATS).
This is a sample that favours compounds with a hit; in the whole collection about 2.9% have one here.
Rango complex inh: inhibitors of Rango-importin beta complex formation. Q14974. Rango CFP/YFP FRET sensor + importin beta, 45 min. Potency, µM (highest dose often 92.2 µM). actives 0.031% (n = 340,000). AID 540263; also: nearly all actives have a fitted effect of over 15% in size
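FRET biosensor (snurportin 1 IBB flanked by EYFP and cerulean), 50 nM, with compound 5 min, then 0.125 microM importin beta in PBS, 1 mM DTT, 0.02% Tween-20, 0.1% BSA. CFP/YFP ratio read after 45 min at room temperature; pre-read flags interference.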
PTAP TSG101 blk: blocks PTAP/TSG101 interaction to inhibit HIV-1 budding; 340,000 tested, under 10 active; Fluorescence polarization, FITC-PTAP peptide / Tsg101 binding; Potency, µM (titrated, usually from 115 µM), actives largely listed as inhibitors; AID 493005; active = well fitted inhibition curve with a large enough effect in the main read-out, with a control signal flat, not every such curve was filed as active; inconclusive = small, poorly fitted or top-dose-only effect, or effect the other way, or a change in a side signal; inactive = no such curve, though single readings can be large or run the other way
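Steps: Tsg101 binding domain dispensed (10 uM final), compounds pinned in DMSO, FITC-labeled PTAP-motif peptide added (50 nM final); after 20 min binding at room temperature, polarization measured.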
DRD3 antagonist: antagonists of human D3 dopamine receptor | P35462 | D3R cells, DiscoveRx beta-arrestin luminescence, antagonist mode; active compounds read low | max response, negative = inhibition, % | actives 2.5% (n = 360,000) | AID 652054; in the data active = max response below about -50%; inconclusive = no clear call, values can overlap the other calls
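Cells expressing the human receptor were seeded at 1500 cells/well, incubated overnight at 37 degrees C in 5% CO2, then exposed to library compounds with dopamine controls for 90 minutes at 37 degrees C before luminescent detection.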
DRD3 agonist: activates the human D3 dopamine receptor; max activation, %; AID 652048; D3R DiscoveRx beta-arrestin cells, luminescence, 90 min; P35462; actives 0.58% (n = 410,000); in the data active = max activation above about 30%
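Agonist mode: compounds and dopamine controls were applied to plated cells for 90 min at 37 degrees C after an overnight attachment at 1500 cells/well. Luminescent read-out followed 30 - 60 minutes at room temperature with DiscoveRx detection reagent.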
Mm-Cpn inhibitor: M. maripaludis TRiC chaperonin inhibition; purified Mm-Cpn ATPase, ADP Transcreener TR-FRET; Potency, µM (series often up to 76.9 µM), usual class: inhibitors; actives 0.031% (n = 330,000); AID 504842; active = well fitted inhibition curve with a large enough effect; inconclusive = small, poorly fitted or top-dose-only effect; also: nearly all actives have a fitted effect of over 80% in size
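Compound-treated chaperonin, 25 nM final, turns over 10 uM ATP at 37°C for 30 min following a 10 min preincubation; ADP generated competes with ADP-d2 for Eu-cryptate antibody, lowering FRET.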
Rango dissoc inh: inhibition of RanGTP-driven Rango-importin beta dissociation | Biochemical FRET Rango-importin beta, RanGTP-induced dissociation | AID 540253 | Potency, µM (series often up to 46.1 µM) | actives 0.071% (n = 340,000) | O95149+P62826; also: nearly all actives have a fitted effect of over 45% in size
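Compounds sat 5 min at room temperature with 0.1 uM Rango biosensor plus 0.25 uM importin beta, then FRET pre-read. RanGTP-RCC1 (0.6 uM Ran, 2mM GTP, 0.2 uM RCC1) added for 45 min, and the CFP/YFP post-read measured blocked complex dissociation.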
Each line names hits and unclear results; the compound was inactive in the other large screens. Unless noted, calls follow the shape of the full dose curve.

Cc1ccc(C)c(NC(=O)CN(C)S(=O)(=O)c2ccc3c(c2)CCC(=O)N3)c1	none (no result: Rango complex inh, PTAP TSG101 blk, DRD3 antagonist, Mm-Cpn inhibitor, Rango dissoc inh)
Cc1ccc(S(=O)(=O)N[C@H](CNCc2ccccc2)C(C)C)cc1	DRD3 antagonist -91 (no result: Rango complex inh, PTAP TSG101 blk, Mm-Cpn inhibitor, Rango dissoc inh)
C[C@H](CO)N1C[C@H](C)[C@H](CN(C)C(=O)c2ccc(N3CCN(C)CC3)cc2)OCc2cnnn2CCCC1=O	none (no result: Rango complex inh, PTAP TSG101 blk, Mm-Cpn inhibitor, Rango dissoc inh)
Cc1ccc(NC(=S)N/N=C2/CCCCc3ccccc32)cc1	DRD3 antagonist -52
Cc1cccc(NC(=S)N/N=C2/CCCCc3ccccc32)c1	DRD3 antagonist -89
COc1cccc2cc(C(=O)NCCc3c(C)[nH]c4ccc(F)cc34)c(=O)oc12	none (no result: Rango complex inh, PTAP TSG101 blk, DRD3 antagonist, Mm-Cpn inhibitor, Rango dissoc inh)
CC(C(=O)NCc1ccc(Cl)cc1)n1ccc2cc(S(=O)(=O)N3CCCC3)ccc21 (stereo not given)	none (no result: Rango complex inh, PTAP TSG101 blk, DRD3 antagonist, Mm-Cpn inhibitor, Rango dissoc inh)
CCN(CC)CCNc1ccc(CO)c2sc3ccccc3c(=O)c12	DRD3 antagonist -63
CCN(CC)CCNc1cccc2sc3ccccc3c(=O)c12	none (no result: Rango complex inh, PTAP TSG101 blk, Mm-Cpn inhibitor, Rango dissoc inh)
COc1cc(NS(=O)(=O)c2cccc3nsnc23)c(C(=O)O)cc1OC	DRD3 antagonist -83
O=S(=O)(Nc1cccc2nsnc12)c1ccccc1	Rango complex inh 29µM
COc1cc(NS(=O)(=O)c2cccc3nsnc23)cc(OC)c1	DRD3 antagonist -64
O=C(O)c1cc(Br)ccc1NS(=O)(=O)c1cccc2nsnc12	none
Cc1ccc(NS(=O)(=O)c2cccc3nsnc23)cc1C	none
Cc1cc(C)c(S(=O)(=O)Nc2cccc3nsnc23)c(C)c1	none
COc1cc(N(Cc2ccccc2)Cc2ccccc2)c2ncn(C(C)C)c2c1	none
CC(C)n1cnc2c(N(C)c3ccccc3)nc(N(CCN(C)C)Cc3ccccc3)nc21	DRD3 antagonist -70
COC1=CC(=O)c2ccccc2C1=O	DRD3 antagonist -71
COc1ccc(SN=C2C(C)=CC(=O)C=C2C)cc1	DRD3 antagonist inconclusive
COC1=CC(=O)C=C(OC)C1=O	DRD3 antagonist -121 (no result: Mm-Cpn inhibitor)
O=C(NCC(c1ccco1)N1CCCC1)c1ccc(Cl)cc1 (stereo not given)	DRD3 antagonist -67
Cc1nn(-c2ccc(C(=O)NCC(c3ccco3)N3CCCC3)cc2)c(C)c1Cl (stereo not given)	DRD3 agonist 57
O=C(CCNC(=O)c1ccc(Cl)cc1)NCC(c1ccco1)N1CCCCC1 (stereo not given)	none
Cc1ccc(C(=O)NCC(c2ccco2)N2CCCCC2)s1 (stereo not given)	DRD3 antagonist inconclusive
Cc1ccc2c(Cl)c(C(=O)NCC(c3ccco3)N3CCCC3)sc2c1 (stereo not given)	Mm-Cpn inhibitor inconclusive
O=C(NCC(c1ccco1)N1CCCC1)c1cc2ccccc2s1 (stereo not given)	DRD3 antagonist -59
CN(C)CCNC(=O)C1CCN(Cc2cc3ccccc3n2Cc2ccccc2)CC1	none (no result: Rango complex inh, PTAP TSG101 blk, DRD3 antagonist, Mm-Cpn inhibitor, Rango dissoc inh)
O=C1NN=C(c2ccc(Cl)cc2)CC1c1cccc(Cl)c1 (stereo not given)	DRD3 antagonist -61
CC(C)C(C(=O)O)N1C(=O)/C(=C/C=C/c2ccco2)SC1=S (stereo not given)	Rango complex inh inconclusive, Rango dissoc inh 0.0052µM
CCn1c(=O)c2ccccc2n2c(SCC(N)=O)nnc12	none
CC(C)(C)NC(=O)[C@H]1CC[C@H]2[C@@H]3CC=C4C=C(C(=O)O)CC[C@]4(C)[C@H]3CC[C@]12C	none (no result: Rango complex inh, PTAP TSG101 blk, DRD3 antagonist, Mm-Cpn inhibitor, Rango dissoc inh)
CCOC(=O)C(=C1Nc2ccccc2N1)n1c(-c2cnccn2)nc2ccccc21	none (no result: Rango complex inh, PTAP TSG101 blk, Mm-Cpn inhibitor, Rango dissoc inh)
CCOC(=O)C(=C1Nc2ccccc2N1)n1c(-c2ccco2)nc2ccccc21	DRD3 antagonist -54 (no result: Rango complex inh, PTAP TSG101 blk, Mm-Cpn inhibitor, Rango dissoc inh)
COc1ccc(NC(=O)N(CCC(C)C)C(C)c2ccccn2)c(OC)c1 (stereo not given)	DRD3 antagonist -53
CCC(C)C(=O)Nc1ccc(OC)cc1OC (stereo not given)	Rango complex inh inconclusive
CCCCCCNCc1ccc(Br)cc1	DRD3 antagonist -66
Brc1cccc(CNCCCN2CCOCC2)c1	DRD3 antagonist inconclusive
CCCCCNCc1cccc(Br)c1	DRD3 antagonist -63
CCCCCNCc1ccc(Br)cc1	DRD3 antagonist inconclusive
